US8618111B2, “5-alkynyl-pyrimidines” (Boehringer Ingelheim International GmbH, priority 2010, dated 2013)

By UniProt entry, the sequences of proteins in these tests, tags left out.
UniProt P42336, whole entry, species assumed: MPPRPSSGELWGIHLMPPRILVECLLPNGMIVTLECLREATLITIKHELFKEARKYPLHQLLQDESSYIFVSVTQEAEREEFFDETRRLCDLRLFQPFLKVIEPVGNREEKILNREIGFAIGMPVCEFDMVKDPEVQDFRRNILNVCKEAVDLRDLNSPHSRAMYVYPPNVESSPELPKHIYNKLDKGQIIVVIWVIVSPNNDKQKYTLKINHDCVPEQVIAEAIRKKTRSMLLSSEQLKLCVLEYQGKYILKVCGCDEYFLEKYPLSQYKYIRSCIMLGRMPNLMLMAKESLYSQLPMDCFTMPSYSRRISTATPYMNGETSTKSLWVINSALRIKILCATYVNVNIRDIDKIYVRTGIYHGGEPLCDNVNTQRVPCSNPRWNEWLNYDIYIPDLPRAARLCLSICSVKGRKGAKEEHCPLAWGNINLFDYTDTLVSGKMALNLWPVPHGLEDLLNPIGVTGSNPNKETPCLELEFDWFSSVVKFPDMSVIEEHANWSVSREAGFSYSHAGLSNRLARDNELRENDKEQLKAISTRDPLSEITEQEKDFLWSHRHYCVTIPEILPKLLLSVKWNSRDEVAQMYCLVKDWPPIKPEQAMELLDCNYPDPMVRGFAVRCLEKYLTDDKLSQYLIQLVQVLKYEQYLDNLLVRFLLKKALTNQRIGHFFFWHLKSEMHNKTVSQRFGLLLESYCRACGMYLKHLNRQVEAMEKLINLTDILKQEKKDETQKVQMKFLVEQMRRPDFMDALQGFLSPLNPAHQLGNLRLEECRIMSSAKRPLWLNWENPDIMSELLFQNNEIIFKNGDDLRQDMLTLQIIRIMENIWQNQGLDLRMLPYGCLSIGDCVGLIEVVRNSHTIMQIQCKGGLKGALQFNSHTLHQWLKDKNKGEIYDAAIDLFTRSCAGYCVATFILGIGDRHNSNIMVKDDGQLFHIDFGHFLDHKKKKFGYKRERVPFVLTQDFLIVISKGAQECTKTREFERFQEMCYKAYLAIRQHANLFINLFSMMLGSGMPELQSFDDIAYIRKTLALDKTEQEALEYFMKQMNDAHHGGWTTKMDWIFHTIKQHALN

What was measured:
[1] = target: mTOR (Homo sapiens (Human), UniProt P42345); assay: mTOR kinase activity assay (phosphorylation status of mTOR substrate 4E-BP1; TR-FRET); type: biochemical
[2] = target: PI3Kalpha (Homo sapiens (Human), UniProt P42336); assay: Inhibition of PI3Kalpha-induced PIP-2 phosphorylation (filter-binding assay); type: biochemical
Procedure: Inhibition of PI3Kalpha-Induced PIP-2 Phosphorylation
Method Type: Filter-Binding-Assay
Aliquoted in desired amounts and stored at −80° C. Final assay concentration 25 ng/well.

With `CCc1ncnc(N2CCc3ncccc3C2)c1C#Cc1ccc(N)nc1` [Example H-2] the IC50 [1] was 67 nM and the “IC50 PI3Ka” value [2] was 333 nM.
